From PubChem BioAssay AID504411 (The Scripps Research Institute Molecular Screening Center, 2011) come the findings set out here.

Amino acid sequences for entries named in this document (tags omitted).
UniProt Q8NCG7, whole entry: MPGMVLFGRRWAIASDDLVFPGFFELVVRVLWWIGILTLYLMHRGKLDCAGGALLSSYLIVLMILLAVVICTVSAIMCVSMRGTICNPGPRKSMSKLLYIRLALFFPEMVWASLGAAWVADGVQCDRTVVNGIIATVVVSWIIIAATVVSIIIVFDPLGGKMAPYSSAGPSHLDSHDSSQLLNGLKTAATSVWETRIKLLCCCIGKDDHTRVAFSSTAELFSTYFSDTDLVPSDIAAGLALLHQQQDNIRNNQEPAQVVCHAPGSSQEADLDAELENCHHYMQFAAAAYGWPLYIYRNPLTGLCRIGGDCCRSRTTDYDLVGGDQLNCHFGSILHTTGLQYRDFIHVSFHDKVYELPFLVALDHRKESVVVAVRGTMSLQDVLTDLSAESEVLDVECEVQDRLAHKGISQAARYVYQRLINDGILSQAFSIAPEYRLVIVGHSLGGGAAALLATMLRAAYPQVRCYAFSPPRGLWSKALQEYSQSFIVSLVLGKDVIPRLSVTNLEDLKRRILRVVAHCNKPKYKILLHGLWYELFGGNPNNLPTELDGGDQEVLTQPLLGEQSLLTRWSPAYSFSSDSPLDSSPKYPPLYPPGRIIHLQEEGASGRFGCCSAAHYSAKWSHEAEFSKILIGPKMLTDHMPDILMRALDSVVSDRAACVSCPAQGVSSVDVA

This is a selection; strong and weak results do not stand in their true shares. Activity calls are given as the source filed them. Cut-off read from the data, not from the text of the source: active = inhibition above about 34%; inactive = the rest.

The assay concerns the target Diacylglycerol lipase-beta (Homo sapiens) (UniProt Q8NCG7). In words: inhibition of human DAGLB hydrolase activity – biochemical, fluorescence, HTS, primary screen (AID 504411).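 Note: 0% = enzyme with vehicle and 100% = wells lacking enzyme.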 Particulars: HEK293T DAGLB membrane lysate, EnzChek fluorogenic substrate; at 5.17 µM; hits give high values.
As to `CN(C)C1(CNC(=O)c2cccc(C#N)c2)CCCCC1`, the inhibition is inactive: -0.33%. Take `CCCN1CCC(Nc2cc(OC)cc(OC)c2)CC1`: the inhibition is inactive: -1.19%. In the case of `Cc1cc(N(CCCl)CCCl)ccc1C=O`, the inhibition was inactive: -1.51%. For `c1ccc(CN2CCC(Nc3ccccc3)CC2)cc1`, the inhibition was inactive: -1.07%.

Turning to `N#Cc1ccc(C(=O)NCC2(N3CCCCC3)CCCCC2)cc1`, the inhibition is inactive: 0.84%. Under `CC(C)(C)OC(=O)N1CCC(N(C(=O)c2ccccc2)c2ccc(Cl)cc2)CC1` stands inactive: -3.64%; under `CCOC(=O)N1CCC(Nc2ccc(C)cc2)CC1`, inactive: -5.9%; under `N/C(=N\O)c1c(N)no[n+]1[O-]`, inactive: -0.2%.

Consider `O=C(OC1CN2CCC1CC2)C1c2ccccc2C=Cc2ccccc21` (stereo not given), for which the inhibition was inactive: -0.87%. With `COc1cc(C(=O)NCC2(N3CCOCC3)CCCCC2)cc(OC)c1C`, the inhibition was inactive: -3.64%.

As to `O=C(NCC1(N2CCOCC2)CCCCC1)c1cc(Br)ccc1Cl`, the inhibition was inactive: -3.35%. Take `COc1ccc(C(=O)NCC2(N3CCOCC3)CCCCC2)cc1OC`: the inhibition is inactive: -0.64%.

Turning to `COc1cc(OC)cc(C(=O)NCC2(N3CCOCC3)CCCCC2)c1`, the inhibition is inactive: -2.75%. As for `COc1cccc(C(=O)N(c2cc(C)cc(C)c2)C2CCN(C(=O)OC(C)(C)C)CC2)c1`, the inhibition is inactive: -6.11%.

For the compound `CCC(CO)(C(=O)OC1CN2CCC1CC2)c1ccccc1` (stereo not given), the inhibition is inactive: -0.32%. As for `CN1CCC(Nc2ccc(Cl)cc2)CC1`, the inhibition is inactive: 0.06%. Take `CN1CCC(Nc2ccc(F)c(Cl)c2)CC1`: the inhibition is inactive: 2.91%.

Turning to `CCOc1ncccc1C(=O)NCC1(N2CCOCC2)CCCCC1`, the inhibition was inactive: -0.27%. On to `O=C(O)C1(Nc2ccccc2)CCN(Cc2ccccc2)CC1`, for which the inhibition was inactive: -1.19%. As to `CC(C)(C)OC(=O)N1CCC(Nc2ccccc2)CC1`, the inhibition was inactive: 1.52%. Regarding `CCCOc1ccc(C(=O)NCC2(N(C)C)CCCCC2)cc1`, the inhibition is inactive: 0.48%. As for `CCN1CCC(Nc2cccc(F)c2)CC1`, the inhibition is inactive: 6.73%. `Cc1ccccc1NC1(C#N)CCN(Cc2ccccc2)CC1`: the inhibition is inactive: 8.34%. Consider `Cn1c(=O)[nH]cc(N(CCCl)CCCl)c1=O`, for which the inhibition was inactive: -1.32%. For the compound `CN(C)c1ccc(C(=O)NCC2(N3CCCCC3)CCCCC2)cc1`, the inhibition is inactive: -2.09%. Take `O=C(NCC1(N2CCCCC2)CCCCC1)c1ccco1`: the inhibition was inactive: -0.37%. For `CC(=O)N(c1ccccc1)C1CCNCC1` the value was inactive: -0.71%. Under `COc1cc(OC)cc(C(=O)NCC2(N3CCCCC3)CCCCC2)c1` stands inactive: -0.68%; under `Fc1ccccc1NC1CCN(Cc2ccccc2)CC1`, inactive: 0.44%; under `Cc1ccc(C(=O)NCC2(N3CCCCC3)CCCCC2)o1`, inactive: 3.6%. For `Cc1ccc(NC2(C#N)CCN(Cc3ccccc3)CC2)cc1`, the inhibition is inactive: 1.97%. For `COc1cc(C(=O)NCC2(N(C)C)CCCCC2)ccc1OC(F)F` the value was inactive: -3.06%. For `CCOC(=O)N1CCC(Nc2cccc(C)c2)CC1` the value was inactive: -0.23%; for `O=C1CCN(Cc2ccccc2)CC1`, inactive: -0.74%; for `CCOc1ccc(C)cc1CN(CCCl)CCCl`, inactive: -2.08%. Under `COc1ccc(NC2CCN(CCc3ccccc3)CC2)c(OC)c1` stands inactive: 0.64%; under `CCOC(=O)N1CCC(Nc2ccc(F)cc2)CC1`, inactive: -2.5%; under `O=C(NCC1(N2CCCCC2)CCCCC1)c1ccc(F)cc1`, inactive: -1.51%. In the case of `O=P1(N(CCCl)CCCl)SCCCS1`, the inhibition is inactive: -2%. Turning to `CCCCOc1ccc(C(=O)NCC2(N3CCOCC3)CCCCC2)cc1`, the inhibition was inactive: -2.11%. For the compound `Cc1cc(C)cc(N(C(=O)c2ccccc2)C2CCN(C(=O)OC(C)(C)C)CC2)c1`, the inhibition was inactive: -5.1%. For `O=C(NCC1(N2CCCCC2)CCCCC1)c1ccc(Cl)nc1` the value was inactive: 2.09%.

Take `O=C(NCC1(N2CCOCC2)CCCCC1)c1cc2ccccc2o1`: the inhibition was inactive: -0.23%. On to `COc1ccc(Cl)cc1C(=O)NCC1(N2CCOCC2)CCCCC1`, for which the inhibition is inactive: -0.83%.

As for `O=C(OC1CN2CCC1CC2)C1c2ccccc2Oc2ccccc21` (stereo not given), the inhibition was inactive: -0.3%. On to `O=C(NCC1(N2CCCCC2)CCCCC1)c1ccc(Cl)s1`, for which the inhibition is inactive: -3.21%. Under `N#CC1(Nc2ccccc2)CCN(Cc2ccccc2)CC1` stands inactive: -2.51%; under `CCOC(=O)N1CCC(Nc2ccc(OC)cc2)CC1`, inactive: -1.42%. For the compound `COc1ccc(C(=O)NCC2(N3CCCCC3)CCCCC2)c(OC)c1OC`, the inhibition is inactive: 2.54%. Regarding `CC(C)(C)OC(=O)N1CCC(N(C(=O)c2ccccc2)c2ccc(F)cc2)CC1`, the inhibition was inactive: -0.21%.

Turning to `COc1ccc(C(=O)NCC2(N3CCCCC3)CCCCC2)cc1`, the inhibition is inactive: -2.03%. With `O=C(NCC1(N2CCCCC2)CCCCC1)c1cccs1`, the inhibition is inactive: 2.18%. For `O=C(NCC1(N2CCCCC2)CCCCC1)c1ccc(=O)[nH]c1` the value was inactive: 1%. Turning to `Cc1cccc(NC2(C#N)CCN(Cc3ccccc3)CC2)c1`, the inhibition was inactive: -1.8%.

In the case of `CSc1ccccc1C(=O)NCC1(N2CCCCC2)CCCCC1`, the inhibition is inactive: -4.25%. Turning to `O=C(NCC1(N2CCCCC2)CCCCC1)c1cncc(Br)c1`, the inhibition was inactive: -0.9%. With `CN1CCC(Nc2cccc(F)c2)CC1`, the inhibition is inactive: 0.38%. For `CCCOc1ccc(C(=O)NCC2(N(C)C)CCCCC2)cc1OC`, the inhibition is inactive: -1.25%. Regarding `Cc1ccc(C(=O)NCC2(N(C)C)CCCCC2)o1`, the inhibition is inactive: -0.74%. In the case of `CC(C)c1ccc(NC2CCN(C(=O)OC(C)(C)C)CC2)cc1`, the inhibition is inactive: -4.42%. For `CN(C)c1cccc(C(=O)NCC2(N3CCCCC3)CCCCC2)c1` the value was inactive: 4.03%. For `COc1ccc(CN(CCCl)CCCl)cc1Cl` the value was inactive: -0.49%; for `O=C(NCC1(N2CCOCC2)CCCCC1)c1cc(F)c(F)cc1Cl`, inactive: 0.48%. As to `COc1cc(OC)c(C(=O)NCC2(N(C)C)CCCCC2)cc1OC`, the inhibition was inactive: -2.8%.

Take `O=C(NCC1(N2CCCCC2)CCCCC1)c1cccc(C(F)(F)F)c1`: the inhibition is inactive: -0.85%. In the case of `COc1cc(C(=O)NCC2(N3CCCCC3)CCCCC2)ccc1OC(F)F`, the inhibition is inactive: -1.89%.

Regarding `O=C(NCC1(N2CCOCC2)CCCCC1)c1cc(=O)[nH]c2ccccc12`, the inhibition was inactive: 1.82%. On to `CN1CCN(CCOC(=O)C(O)(c2ccccc2)c2ccccc2)CC1`, for which the inhibition is inactive: 0.77%.

Turning to `COc1ccc(NC2CCN(C(=O)OC(C)(C)C)CC2)cc1`, the inhibition was inactive: -1.43%.

In the case of `CC(C)c1ccc(C(=O)NCC2(N3CCOCC3)CCCCC2)cc1`, the inhibition was inactive: -0.55%.

As for `O=C(NCC1(N2CCCCC2)CCCCC1)c1ccc(OC(F)F)cc1`, the inhibition was inactive: 1.19%. Regarding `N#CC1(Nc2ccccc2)CCN(CCc2ccccc2)CC1`, the inhibition is inactive: -2.89%. With `CCN1CCC(Nc2ccc(Cl)cc2)CC1`, the inhibition is inactive: -1.08%. Under `O=C(NCC1(N2CCCCC2)CCCCC1)c1cccc([N+](=O)[O-])c1` stands inactive: 0.92%; under `CSc1ccc(C(=O)NCC2(N3CCOCC3)CCCCC2)cc1`, inactive: -0.6%.
